Values quoted from earlier work as cited in patent US20060067952A1, “Low oil emulsion compositions for delivering taxoids and other insoluble drugs” (SD Pharmaceuticals, Inc., priority 2004, published 2006).

5β,20-epoxy-1,2α,4,7β,10β,13α-hexahydroxytax-11-en-9-one 4,10-diacetate 2-benzoate 13-ester with (2R,3S)-N-benzoyl-3-phenylisoserine [Paclitaxel]
Solubility in water (descriptive): insoluble in water
